Test results reported in PMC12363342, “Investigating the N-terminal linker histone H1 subtypes as substrates for JmjC lysine demethylases” (RSC Chemical Biology, 2025).

Experiments:
[1] = system: KDM4A; test: LC-MS demethylation activity assay, KDM4A; type: biochemical, human; settings: room temperature
Experimental: (§1) The substrate specificity of JmjC KDMs for H1 was examined using liquid chromatography coupled to mass spectrometry (LC-MS) assays. The H1 peptides (10 μM) were incubated with the recombinant KDM (2 μM) in HEPES buffer at pH 7.5 at room temperature for 2 h, in the presence of ferrous(II) ammonium sulfate (FAS, 10 μM), sodium ascorbate (LAA, 100 μM) and 2OG (20 μM), and then quenched with formic acid. N^ε-Methylated H3K9 and H3K36 peptides were used as positive controls (Fig. 3–5 and Fig. S2–S6).[26]
(§2) The catalytic domains of the JmjC KDMs used were recombinantly produced as reported in either Escherichia coli (KDM4AM1-L359,[38] KDM4DM1-L359,[39] KDM4EM1-R336,[30] KDM6BD1141–E1590[40] and KDM3CL2157-L2500) or Sf9 cells (KDM3AT515–S1317, KDM3B882–1761, and KDM5DM1-D775) as N-terminally His6-tagged proteins. […] To produce proteins, DNA sequences encoding for KDM3A, KDM3B and KDM5D were inserted into the pFB-LIC vector, containing a TEV-protease cleavable N-terminal 6x-histidine tag via ligation independent cloning (LIC). The resultant plasmids were transformed into baculovirus and Sf9 cells ([…]) which were infected with the virus stock. The cells were grown at 27 °C and 90 rpm for 70 h. Cells were then harvested and suspended in 100 mL of lysis buffer (50 mM HEPES-NaOH, pH 7.4, 500 mM NaCl, 20 mM imidazole, 0.5 mM Tris (2-carboxyethyl)phosphine (TCEP), 5% (v/v) glycerol). […] The supernatant was loaded onto a Ni-NTA gravity column, washed with 10 column volume of lysis buffer and eluted using the elution buffer (50 mM HEPES-NaOH, pH 7.4, 500 mM NaCl, 300 mM imidazole, 0.5 mM TCEP, 5% (v/v) glycerol). The eluted protein was further purified using S200 gel filtration column chromatography (50 mM HEPES-NaOH, pH 7.4, 150 mM NaCl, 0.5 mM TCEP and 5% glycerol). Protein purity was analysed by SDS-PAGE and further confirmed by mass spectrometry. Selected fractions were pooled, concentrated and stored at −80 °C.
(§3) All reagents were purchased from Sigma Aldrich and were of the highest grade available. Ferrous(II) ammonium sulfate (FAS) solutions were prepared freshly by dissolving FAS to 400 mM in 20 mM HCl with subsequent dilution to 1 mM using deionized water. Fresh 2OG (10 mM) and LAA (50 mM) solutions were prepared by dissolving the solids in deionised water. All enzyme reactions were performed in 384-well plates (Greiner Bio-One) with a final reaction volume of 50 μL. Substrate mixtures contained 50 mM HEPES pH 7.5, LAA (100 μM), FAS (10 μM), 2OG (20 μM) and an H1 isoform peptide (10 μM). Reactions were initiated by the addition of enzyme to a final concentration of 2.0 μM. After 2 h, the reactions were stopped by the addition of 5 μL of 10% (v/v) LC-MS grade formic acid (Fisher Scientific) to a final concentration of 1% (v/v). Product analyses were performed by liquid chromatography-mass spectrometry (LC-MS) using an Agilent 1290 infinity II LC system equipped with an Agilent 1290 multisampler and an Agilent 1290 high speed pump and connected to an Agilent 6550 accurate mass iFunnel quadrupole time of flight (Q-TOF) mass spectrometer. 1 μL of the reaction mixture was injected onto a 1.8 μm × 2.1 × 50 mm ZORBAX RRHD Eclipse Plus C18 column (Agilent). Solvent A consisted of HPLC grade water containing 0.1% (v/v) formic acid and solvent B consisted of MeCN containing 0.1% (v/v) formic acid. Peptides were separated using a stepwise gradient (0 min – 95% solvent A, 1.0 min – 80% solvent A, 3.0 min – 45% solvent A, 4.0 min – 45% solvent A, 5.0 min – 0% solvent A, 6.0 min – 0% solvent A, 7.0 min – 95% solvent A). This was followed by a 3 min post-run with 95% solvent A to re-equilibrate the column. All flow rates were 0.2 mL min^−1.

[2] = biological target: T1, KDM4E (Homo sapiens, UniProt B2RXH2); test: LC-MS demethylation activity assay, KDM4E; type: biochemical; settings: room temperature
T1 construct: KDM4DM1-L359,[39]; KDM4EM1-R336,[30]; His6 (N); made in house; host or cells: Escherichia coli
T1 sequence (B2RXH2 1-336): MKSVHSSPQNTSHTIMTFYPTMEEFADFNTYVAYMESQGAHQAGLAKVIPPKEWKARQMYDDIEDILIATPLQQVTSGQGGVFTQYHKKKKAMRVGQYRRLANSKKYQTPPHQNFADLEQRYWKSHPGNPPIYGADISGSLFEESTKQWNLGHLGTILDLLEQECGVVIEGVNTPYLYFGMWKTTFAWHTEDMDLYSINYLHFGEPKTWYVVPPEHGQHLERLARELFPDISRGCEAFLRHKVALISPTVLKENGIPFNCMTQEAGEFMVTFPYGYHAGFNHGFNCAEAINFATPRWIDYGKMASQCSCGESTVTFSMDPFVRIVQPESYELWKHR
Experimental: as §1, §2, §3

[3] = 2 μM KDM4A, 10 μM peptide, standard conditions, 2 h
[4] = 2 μM KDM, 10 μM H1/H3 peptide, 10 μM FAS, 100 μM LAA, 20 μM 2OG, 50 mM HEPES pH 7.5, 2 h, T (tri-) initial methylation state
[5] = 2 μM KDM4E, 10 μM peptide, standard conditions, 2 h

ARTKQTARKme3STGGKA [Peptide H3K9me3, histone H3 residues 1-15 peptide with tri-methylated K9; commercial positive control, reference compound]
di-methylated product formed by KDM4A [1, 3]: ~53% | mono-methylated product formed by KDM4A [1, 3]: > 10% | KDM4A demethylation activity, T [1, 4]: ● [green] (green dots indicate good demethylation (>50% conversion)) | di-methylated product formed by KDM4E [2, 5]: ~25% | mono-methylated product formed by KDM4E [2, 5]: ~29% | KDM4E demethylation activity, T [2, 4]: ● [green] (green dots indicate good demethylation (>50% conversion))
